PubChem BioAssay AID485297 (National Center for Advancing Translational Sciences (NCATS), 2010)
Values joined by “and” are separate entries in the source; they are usually repeats but may differ in a detail not shown here. Equal values may be shown once. This is a selection; strong and weak results do not stand in their true shares. Records with an inconclusive call do not appear. Active and inactive are the calls of the source. Calls follow the shape of the dose curve; as a rule, active = well fitted activation curve with a large enough effect; inconclusive = small, poorly fitted or top-dose-only effect; inactive = no such curve, though single readings can be large or run the other way.

Experiment: qHTS Assay for Rab9 Promoter Activators; also: % of control where 0% means no effect; nearly all actives have a fitted effect of over 60% in size
Details: Huh7 Rab9 promoter-luciferase reporter, luminescence, 24 h; at 9.22 µM (top of the series) unless noted

| SMILES | activation, negative = inhibition |
| --- | --- |
| CC(C)(C)C(=O)NC(Sc1ccccc1)C(Cl)(Cl)Cl (configuration not stated) | inactive: 0.324% |
| O=P1(Nc2nc3ccc(Cl)cc3s2)COc2ccccc2O1 (configuration not stated) | inactive: -7.02% |
| CC(=O)Nc1ccc(Oc2c([N+](=O)[O-])cc([N+](=O)[O-])cc2[N+](=O)[O-])cc1 | inactive: -2.86% |
| CC(=O)Nc1ccc([As](=O)(O)O)c(O)c1 | inactive: -2.45% |
| CC(=O)c1ccc(N2CC2c2ccncc2)cc1 (configuration not stated) | inactive: -1.19% |
| C[C@H]1OP(=O)(Oc2ccccc2)C[C@@H]2O[C@@H]21 (some centres not stated) | inactive: -2.4% |
| C[C@@H]1C=CCP(=O)(Oc2ccccc2)O1 (some centres not stated) | inactive: -7% |
| O=C(NC1CCS(=O)(=O)C1)NP(=S)(Oc1ccccc1)Oc1ccccc1 (configuration not stated) | inactive: 21.7% |
| CCNC(=S)/N=C(\N)N[N+](=O)[O-] | inactive: -9.48% |
| CCOC(=O)NC(Sc1ccccc1)C(Cl)(Cl)Cl (configuration not stated) | inactive: -8.48% |
| Cc1ccc(NP(=O)(Oc2cccc(C)c2)Oc2cccc(C)c2)nc1 | inactive: -4.93% |
| c1ccc(-c2nn[nH]n2)c(-c2nn[nH]n2)c1 | inactive: -4.09% |
| O=c1c2cc([N+](=O)[O-])ccc2[nH]c2c([N+](=O)[O-])cc([N+](=O)[O-])cc12 | inactive: -49.7% |
| CN(C)C(=O)Oc1noc2ccccc12 | inactive: -11.8% |
| Cc1ccccc1OP(=O)(Nc1ccccn1)Oc1ccccc1C | inactive: 0.903% |
| Cc1ccc(OP(=O)(Nc2ccccn2)Oc2ccc(C)cc2)cc1 | inactive: 0.647% |
| CC(=O)NC(SC(=S)N(CC(C)C)CC(C)C)C(Cl)(Cl)Cl (configuration not stated) | inactive: -3.66% |
| COC(=O)c1cc2c(s1)N=C(c1ccccc1)N(C)P2(=O)N1CCOCC1 (configuration not stated) | inactive: 8.82% |
| CCC(=O)N1C2C3N(C(=O)CC)C1C1N(C(=O)CC)C(C(N1C(=O)CC)N3C(=O)CC)N2C(=O)CC | inactive: -0.369% |
| O=C(OC1CN2CCC1CC2)c1ccccc1 (configuration not stated) | inactive: -4.58% |
| CN(C(=O)Cc1ccc(Cl)c(Cl)c1)[C@@H]1CCCC[C@@H]1N1CCCC1 | inactive: -17.1% [at 46.1 µM] |
| C[C@H]1OP(=O)(Oc2ccccc2)[C@H](O)[C@H](O)[C@H]1N=[N+]=[N-] (some centres not stated) | inactive: 0.32% |
| O=P(Nc1nc2ccccc2s1)(c1ccccc1)c1ccccc1 | inactive: -1.33% |
| CN(C)C1(CNC(=O)c2ccc(Cl)c(S(N)(=O)=O)c2)CCCCC1 | inactive: -4.69% |
| O=P(Nc1ccccn1)(c1ccc(Br)cc1)c1ccc(Br)cc1 | inactive: -2.32% |

| SMILES | activation, negative = inhibition |
| --- | --- |
| C(Cc1nn[nH]n1)Cc1nn[nH]n1 | inactive: 6.01% |
| Nc1ccc([As](=O)(O)c2ccc([N+](=O)[O-])cc2)cc1 | inactive: -9.97% |
| O=C(OC1CN2CCC1CC2)c1cccc(Cl)c1 (configuration not stated) | inactive: -2.66% |
| O=[N+]([O-])c1ncn(CCn2cnc([N+](=O)[O-])n2)n1 | inactive: 1.12% |
| CC(=O)NC(SC(=S)N(C)C)C(Cl)(Cl)Cl (configuration not stated) | inactive: -22.7% |
| O=[N+]([O-])c1ccc(O)c(/C=N/Nc2ccc([N+](=O)[O-])cc2[N+](=O)[O-])c1 | inactive: -38.2% |
| O=[As](O)(c1ccccc1)c1ccc(O)cc1 | inactive: -2.9% |
| c1nnnn1CCn1cnnn1 | inactive: 4.49% |
| O=P(Nc1nccs1)(c1ccccc1)c1ccccc1 | inactive: -0.718% |
| CC(C)C(=O)NC(Sc1ccccc1)C(Cl)(Cl)Cl (configuration not stated) | inactive: 2.26% |
| CC(=O)N1C2C3N(C(C)=O)C1C1N(C(C)=O)C(C(N1C(C)=O)N3C(C)=O)N2C(C)=O | inactive: -1.07% |
| O=[N+]([O-])c1cccc2n[nH]nc12 | inactive: -1.04% |
| O=[N+]([O-])c1cc([N+](=O)[O-])c(CCNc2ccccc2)c([N+](=O)[O-])c1 | inactive: 8.55% |
| CCc1nc2c(n1)c1c(non1O)c1c2no[n+]1[O-] | inactive: -52.2% |
| Cc1ccc(NP(=O)(Oc2ccccc2)Oc2ccccc2)nc1 | inactive: 1.8% |
| COc1ccc(C2=NCC(CBr)S2)cc1 (configuration not stated) | inactive: 12.1% |
| CN(C)C(=O)OCCc1n(C)cc[n+]1C | inactive: -4.19% |
| CC(C)=N/N=C(\N)N[N+](=O)[O-] | inactive: 0.0679% |
| CC1CCN(C(=O)Oc2c(Cl)cc(Cl)c3cccnc23)CC1 | inactive: 26.8% |
| Nc1ccc([As](=O)(O)c2ccc(N)cc2)cc1 | inactive: -3.31% |
| CCN(/C(=N/P(=O)(N1CCOCC1)N1CCOCC1)N1CCOCC1)c1ccc(OC)cc1 | inactive: 0.589% |
| O=C(Nc1cc([As](=O)(O)O)ccc1O)c1ccccc1 | inactive: 0.419% |
| O=[N+]([O-])c1cccc(NC2=NCC(CBr)S2)c1 (configuration not stated) | inactive: 0.308% |
| O=C(O)CNc1ccc([As](=O)(O)O)cc1 | inactive: -0.673% |
| CC(C)(C)C(=O)NC(Sc1ccncn1)C(Cl)(Cl)Cl (configuration not stated) | inactive: -0.723% |

| SMILES | activation, negative = inhibition |
| --- | --- |
| O=[N+]([O-])c1ncn(CCn2ncnc2[N+](=O)[O-])n1 | inactive: -1.78% |
| CN(C(=O)Cc1ccc(Cl)c(Cl)c1)[C@H]1CCCC[C@@H]1N1CCCC1 | inactive: -31.3% [at 46.1 µM] and inactive: -16.9% [at 46.1 µM] |
| Cc1ccc(NP(=O)(Oc2ccccc2F)Oc2ccccc2F)nc1 | inactive: 0.122% |
| Cc1cc(SC(NC(=O)c2ccc(F)cc2)C(Cl)(Cl)Cl)ncn1 (configuration not stated) | inactive: 2.25% |
| CCOP(=O)(Nc1ccccc1)OCC | inactive: -1.87% and inactive: -2.94% |
| CC(=O)Nc1ccc([As](=O)(O)O)cc1 | inactive: -1.14% [at 1.84 µM] |
| O=C(O)c1ccccc1[As](=O)(O)O | inactive: 1.77% |
| O=P(Nc1nc2ccc(Cl)cc2s1)(c1ccccc1)c1ccccc1 | inactive: -6.72% |
| CCN(N=Nc1nonc1N)c1nonc1N | inactive: -6.68% |
| Nc1cccc2ccc([As](=O)(O)O)cc12 | inactive: -2.94% |
| O=[N+]([O-])c1cc([N+](=O)[O-])c(CCN2CCOCC2)c([N+](=O)[O-])c1 | inactive: 0.496% [at 1.84 µM] |
| Cc1ccc(OP(=O)(Nc2nccs2)Oc2ccc(C)cc2)cc1 | inactive: 0.126% |
| COc1ccccc1OP(=O)(Nc1ccc(C)cn1)Oc1ccccc1OC | inactive: -1.9% |
| CN1CCCC(OC(=O)C(c2ccccc2)c2ccccc2)C1 (configuration not stated) | inactive: -1.88% |
| Clc1ccc(Cl)c(NC2=NCC(CBr)S2)c1 (configuration not stated) | inactive: -5.17% |
| NC(=O)c1cc([N+](=O)[O-])cc([N+](=O)[O-])c1N | inactive: 8.47% |
| Cc1ccc(N/C(=N/P(=O)(N2CCOCC2)N2CCOCC2)N2CCOCC2)cc1 | inactive: -1.71% |
| CN(C(=O)Cc1ccc(Cl)c(Cl)c1)[C@H]1CCCC[C@H]1N1CCCC1 | inactive: -1.87% |
| Nc1cc(N)c2nonc2c1[N+](=O)[O-] | inactive: -1.58% |
| CC(C)CC(=O)NC(Sc1ccc(Cl)cc1)C(Cl)(Cl)Cl (configuration not stated) | inactive: -5.51% |
| O=C(NC(Sc1ccncn1)C(Cl)(Cl)Cl)c1ccccc1 (configuration not stated) | inactive: -1.42% |
| Cc1c2non([O-])c-2c(C)[n+](=O)[n+]1[O-] | inactive: 0.545% |
| Oc1ccccc1CNc1ccccn1 | inactive: 13.2% |
| COc1cc(I)ccc1[As](=O)(O)O | inactive: 0.391% |
| COc1ccc2nc(NP(=O)(c3ccccc3)c3ccccc3)sc2c1 | inactive: 0.0109% |

| SMILES | activation, negative = inhibition |
| --- | --- |
| Cc1cc(=O)[nH]c(N[N+](=O)[O-])n1 | inactive: -4.84% |
| O=C(OC1CN2CCC1CC2)C12CC3CC(CC(C3)C1)C2 (configuration not stated) | inactive: 1.91% |
| Cc1c2c(nc3ccccc13)SC(C(Cl)Cl)C2 (configuration not stated) | inactive: -0.384% |
| COc1ccc(N/C(=N/P(=O)(N2CCOCC2)N2CCOCC2)N2CCOCC2)cc1 | inactive: -10.6% |
| Cc1ccc2nc3c(c(C)c2c1)CC(C(Cl)Cl)S3 (configuration not stated) | inactive: -3.88% |
| Cc1ccc(OP(=O)(Nc2ccc([N+](=O)[O-])cn2)Oc2ccc(C)cc2)cc1 | inactive: 0.889% |
| COc1cc(C(=O)NCC2(N3CCOCC3)CCCCC2)ccc1OCC(C)C | inactive: -6.22% |
| O=[As](O)(c1ccc(O)cc1)c1ccccc1O | inactive: -1.66% |
| C[As](=O)(O)c1cccc(C(=O)O)c1 | inactive: 2.28% [at 1.84 µM] |
| O=[N+]([O-])c1cc([N+](=O)[O-])c(-c2ccn[nH]2)s1 | inactive: -16.2% |
| CC(C)NC(=O)NP(=O)(Oc1ccccc1)Oc1ccccc1 | inactive: -0.391% |
| CCN(CC)C(=S)SC(NC=O)C(Cl)(Cl)Cl (configuration not stated) | inactive: -13.5% |
| CC(C)c1ccc(OP(=O)(Nc2ccccn2)Oc2ccccc2F)cc1 (configuration not stated) | inactive: -9.8% |
| ClCCSc1nnc(-c2cccnc2)o1 | inactive: -2.84% |
| Cc1cc(SC(NC(=O)c2ccccc2)C(Cl)(Cl)Cl)nc(C(C)C)n1 (configuration not stated) | inactive: -0.727% |
| CCCCOc1ccc(C(=O)NCC2(N3CCCCC3)CCCCC2)cc1OC | inactive: -9.82% |
| CCOC(=O)Nc1ccc([As](=O)(O)O)c(O)c1 | inactive: -5.35% |
| O=[N+]([O-])c1ccc(Nc2ccc(Oc3ccc([N+](=O)[O-])cc3[N+](=O)[O-])cc2)c([N+](=O)[O-])c1 | inactive: -2.09% |
| Cc1cc(SC(NC=O)C(Cl)(Cl)Cl)ncn1 (configuration not stated) | inactive: 5.12% |
| O=P(Nc1ccccn1)(c1cccc2ccccc12)c1cccc2ccccc12 | inactive: -0.975% |
| CCOC(=O)Nc1cccc([As](=O)(O)O)c1 | inactive: -2.8% [at 1.84 µM] |
| O=C(Nc1ccncc1[N+](=O)[O-])c1ccc([N+](=O)[O-])cc1[N+](=O)[O-] | inactive: 13.8% |
